Laboratory results: patent US20120114797A1, “TALAROMYCES STRAINS AND ENZYME COMPOSITIONS” (DSM IP ASSETS B.V., priority 2009, published 2012)

System: strains from the 142 strain group and the 180 strain group
Experiment: Efficiency of mutagenesis (mutation factor, 5-FOA resistance)
Details: most effective treatments; frequency of 5-FOA resistant mutants

Question: With `CN(N=O)C(=N)N[N+](=O)[O-]` as the compound, how does the mutation factor read?
Answer: 100
